Experimental data taken from PubChem BioAssay AID1346378 (National Center for Advancing Translational Sciences (NCATS), 2018).
The entries are a selection whose mix differs from that of the whole data set. Activity calls are given as the source filed them. Cut-off read from the data, not from the text of the source: active = activity change below about -50%; inconclusive = mostly about -30% to -49%; inactive = weaker than that.

By UniProt entry, the sequences of proteins in these tests, tags left out.
UniProt Q9BTU6, whole entry: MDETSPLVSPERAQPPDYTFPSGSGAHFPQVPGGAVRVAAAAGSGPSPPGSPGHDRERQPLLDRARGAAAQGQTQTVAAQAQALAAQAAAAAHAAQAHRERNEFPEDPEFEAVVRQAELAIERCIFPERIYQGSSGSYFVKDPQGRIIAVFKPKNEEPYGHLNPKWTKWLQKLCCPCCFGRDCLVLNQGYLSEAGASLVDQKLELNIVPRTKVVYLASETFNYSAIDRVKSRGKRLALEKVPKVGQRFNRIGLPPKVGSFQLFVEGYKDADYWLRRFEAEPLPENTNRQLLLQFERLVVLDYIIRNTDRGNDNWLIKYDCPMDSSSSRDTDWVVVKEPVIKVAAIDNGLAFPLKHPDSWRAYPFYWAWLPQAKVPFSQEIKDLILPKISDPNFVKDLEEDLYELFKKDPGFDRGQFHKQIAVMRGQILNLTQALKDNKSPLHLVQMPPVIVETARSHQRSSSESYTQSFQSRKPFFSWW

Each compound was assayed against Phosphatidylinositol 4-kinase type 2-alpha (Homo sapiens) (UniProt Q9BTU6) (assay: qHTS for small molecular inhibitors of PI4K2A). Conditions: purified PI4K2A, ADP-Glo luminescence, 1 h; at 76.9 µM; active compounds read low.
Description: The phosphatidylinositol 4-phosphate (PI4P) is emerging as a key regulator of lipid transfer in ER-membrane contact sites. The four different phosphatidylinositol 4-kinase (PI4K) enzymes generate PI4P in different membrane compartments supporting distinct cellular processes many of which are crucial for the maintenance of cellular integrity but also hijacked by intracellular pathogens. The goal of this screening project is to search for small molecular inhibitors of PI4K2A based on a high throughput screening strategy.The ADP-Glo assay was used as a starting point to develop a miniaturized version for HTS applications. To implement the HTS screen, the PI4K ADP-Glotrade mark Kinase assay (Promega, V9102) was miniaturized for the 1536-well format used at NCGC.
For the robotic screening, the ADP-Glo assay using the ADP-Glotrade mark Kinase Assay kit from Promega was miniaturized and optimized on 1536-well white solid bottom plates (Greiner Bio-one). The substrate, 1.2 mM PI, prepared in the assay buffer (40mM Tris pH7.5, 20mM MgCl2, 1mM EGTA, 0.4% Triton X-100, 0.5mM DTT, 0.5mg/ml BSA) and PI4K2A enzyme, diluted also in the assay buffer to 4ug/mL, were dispensed onto the plates in equal volumes (1microl/well), pinned with 23 nL/well tested compounds or control followed by dispensation of 1microl/well 300microM ATP. The plates were incubated for one hour. Then, 2 µL/well of ADP-Glo reagent was added and incubated for 40 minutes. Next, 4microL/well of Kinase Detection Buffer was added to the plates and incubated for additional 40 minutes. All incubation steps were performed at ambient temperature. The resulting luminescence signal was measured on Viewlux plate reader (PerkinElmer). Adenosine, a partial non-specific inhibitor, was used as a positive control at 100microM final concentration to assess the assay's quality and plate-to-plate reproducibility. We also used "no enzyme" control to gauge the assay's maximal potential inhibition (IC100).
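Note: -100% = wells without enzyme as full effect.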

SMILES	activity change, negative = inhibition
O=c1[nH]c2ccccc2n1C1CCN(C(c2cccs2)c2nnnn2C2CCCC2)CC1 (centres undefined)	inactive: 2.46%
O=C(O)c1cccc(Nc2c([N+](=O)[O-])cc([N+](=O)[O-])cc2[N+](=O)[O-])c1	inactive: -0.65%
CCc1cc(C(=O)NCC2(N3CCCCC3)CCCCC2)sc1C	inactive: -3.06%
O=C(OC1CN2CCC1CC2)C1c2ccccc2C=Cc2ccccc21 (centres undefined)	inactive: 0.912%
CCCCn1nnnc1C(c1cccc(OC)c1OC)N1CCC(n2c(=O)[nH]c3ccccc32)CC1 (centres undefined)	inactive: -5.06%
CCOC(=O)N1CCC(Nc2ccc(C)cc2)CC1	inactive: 1.66%
COc1cccc(C(c2nnnn2C(C)(C)C)N2CCC(n3c(=O)[nH]c4ccccc43)CC2)c1OC (centres undefined)	inactive: 0.085%
N/C(=N\O)c1c(N)no[n+]1[O-]	inactive: -4.54%
NC(=O)C1(Nc2ccccc2)CCN(Cc2ccccc2)CC1	inactive: -1.86%
CCC(=O)N(c1ccccc1)C1CCNCC1	inactive: -3.89%
O=c1[nH]c2ccccc2n1C1CCN(C(c2cccs2)c2nnnn2C2CCCCC2)CC1 (centres undefined)	inactive: -1.84%
O=c1[nH]c2ccccc2n1C1CCN(C(c2ccnc3ccccc23)c2nnnn2C2CCCC2)CC1 (centres undefined)	inactive: -1.55%
COc1ccc(C(=O)NCC2(N3CCOCC3)CCCCC2)cc1OC	inactive: 1.88%
COc1cc(C(=O)NCC2(N3CCOCC3)CCCCC2)cc(OC)c1C	inactive: -0.529%
CCCCn1nnnc1C(c1ccccc1)N1CCC(n2c(=O)[nH]c3ccccc32)CC1 (centres undefined)	inactive: -6.5%
O=C(NCC1(N2CCOCC2)CCCCC1)c1cc(Br)ccc1Cl	inactive: -4.12%
CC(C)(C)n1nnnc1C(c1cccc2ccccc12)N1CCC(n2c(=O)[nH]c3ccccc32)CC1 (centres undefined)	inactive: -2.98%
CN(C)C1(CNC(=O)c2cccc(C#N)c2)CCCCC1	inactive: 9.09%
CCCN1CCC(Nc2cc(OC)cc(OC)c2)CC1	inactive: -6.79%
O=c1[nH]c2ccccc2n1C1CCN(C(c2ccccc2)c2nnnn2C2CCCC2)CC1 (centres undefined)	inactive: 0.385%
O=C(NCC1(N2CCOCC2)CCCCC1)c1ccccc1	inactive: 1.24%
Cc1cc(N(CCCl)CCCl)ccc1C=O	inactive: -1.25%
c1ccc(CN2CCC(Nc3ccccc3)CC2)cc1	inactive: 0.427%
CCOC(=O)C(CC)C1=NC(C)(C)Cc2ccccc21.O=[N+]([O-])c1cc([N+](=O)[O-])c(O)c([N+](=O)[O-])c1 (centres undefined)	inactive: 3.81%

SMILES	activity change, negative = inhibition
O=C(NCC1(N2CCOCC2)CCCCC1)c1ccccc1[N+](=O)[O-]	inactive: -12.9%
N#Cc1ccc(C(=O)NCC2(N3CCCCC3)CCCCC2)cc1	inactive: -0.855%
CC(C)(C)OC(=O)N1CCC(N(C(=O)c2ccccc2)c2ccc(Cl)cc2)CC1	inactive: -4.54%
O=C(NCC1(N2CCOCC2)CCCCC1)c1ccc([N+](=O)[O-])cc1	inactive: -1.83%
Cc1ccccc1C(=O)NCC1(N(C)C)CCCCC1	inactive: -4.1%
CN(C)c1ccc(C(=O)NCC2(N3CCCCC3)CCCCC2)cc1	inactive: 5.14%
Cn1c(=O)[nH]cc(N(CCCl)CCCl)c1=O	active: -55.5%
O=C(NCC1(N2CCCCC2)CCCCC1)c1ccco1	inactive: 4.37%
CC(C)(C)c1ccc(C(=O)NCC2(N3CCOCC3)CCCCC2)cc1	inactive: -3.17%
COc1ccc(C(c2nnnn2C2CCCCC2)N2CCC(n3c(=O)[nH]c4ccccc43)CC2)cc1 (centres undefined)	inactive: -3.82%
CCN1CCC(Nc2cccc(F)c2)CC1	inactive: 1.24%
CC(C)(C)n1nnnc1C(c1ccnc2ccccc12)N1CCC(n2c(=O)[nH]c3ccccc32)CC1 (centres undefined)	inactive: 1.57%
Cc1ccccc1NC1(C#N)CCN(Cc2ccccc2)CC1	inactive: 0.586%
Fc1ccccc1NC1CCN(Cc2ccccc2)CC1	inactive: 0.849%
Cc1ccc(Nc2c([N+](=O)[O-])cc([N+](=O)[O-])cc2[N+](=O)[O-])cc1	inactive: -7.17%
Cc1ccc(C(=O)NCC2(N3CCCCC3)CCCCC2)o1	inactive: -1.38%
Cc1ccc(NC2(C#N)CCN(Cc3ccccc3)CC2)cc1	inactive: 1.09%
CCC(c1nnnn1C1CCCCC1)N1CCC(n2c(=O)[nH]c3ccccc32)CC1 (centres undefined)	inactive: 3.17%
CN(C)C1(CNC(=O)c2ccc(C(C)(C)C)cc2)CCCCC1	inactive: 0.135%
COc1cccc(C(c2nnnn2C2CCCCC2)N2CCC(n3c(=O)[nH]c4ccccc43)CC2)c1OC (centres undefined)	inactive: 14.6%
CC(=O)N(c1ccccc1)C1CCNCC1	inactive: -2.28%
COc1cc(OC)cc(C(=O)NCC2(N3CCCCC3)CCCCC2)c1	inactive: 3.78%
O=c1[nH]c2ccccc2n1C1CCN(C(c2ccnc3ccccc23)c2nnnn2C2CCCCC2)CC1 (centres undefined)	inactive: 1.49%
CN1CCC(Nc2ccc(Cl)cc2)CC1	inactive: -0.397%

SMILES	activity change, negative = inhibition
COc1cccc(C(=O)N(c2cc(C)cc(C)c2)C2CCN(C(=O)OC(C)(C)C)CC2)c1	inactive: -0.425%
COc1cc(C(=O)NCC2(N3CCOCC3)CCCCC2)cc(OC)c1OC	inactive: -1.53%
COc1cc(OC)cc(C(=O)NCC2(N3CCOCC3)CCCCC2)c1	inactive: -1.15%
COc1cccc(C(c2nnnn2C2CCCC2)N2CCC(n3c(=O)[nH]c4ccccc43)CC2)c1OC (centres undefined)	inactive: -3.08%
CCC(CO)(C(=O)OC1CN2CCC1CC2)c1ccccc1 (centres undefined)	inactive: -10.3%
NN(c1ccccc1)C1CCN(CCc2ccccc2)CC1	inactive: -0.88%
O=C(O)C1(Nc2ccccc2)CCN(Cc2ccccc2)CC1	inactive: -2.13%
CC(C)(C)OC(=O)N1CCC(Nc2ccccc2)CC1	inactive: -2.13%
O=c1[nH]c2ccccc2n1C1CCN(C(c2cc3ccccc3o2)c2nnnn2C2CCCC2)CC1 (centres undefined)	inactive: 0.776%
CCCOc1ccc(C(=O)NCC2(N(C)C)CCCCC2)cc1	inactive: 0.75%
CN1CCC(Nc2ccc(F)c(Cl)c2)CC1	inactive: -2.7%
CCOc1ncccc1C(=O)NCC1(N2CCOCC2)CCCCC1	inactive: 7.03%
COc1ccc(Cl)cc1C(=O)NCC1(N2CCOCC2)CCCCC1	inactive: -2.51%
O=C1C(O)=C([N+](=O)[O-])C(=O)C(O)=C1[N+](=O)[O-]	inactive: -17%
O=C(NCC1(N2CCCCC2)CCCCC1)c1ccc(Cl)s1	inactive: 2.69%
N#CC1(Nc2ccccc2)CCN(Cc2ccccc2)CC1	inactive: -0.941%
O=c1[nH]c2ccccc2n1C1CCN(C(c2cc3ccccc3o2)c2nnnn2C2CCCCC2)CC1 (centres undefined)	inactive: 5.37%
O=C(OC1CN2CCC1CC2)C1c2ccccc2Oc2ccccc21 (centres undefined)	inactive: 2.67%
CCCCn1nnnc1C(c1ccc(OC)cc1)N1CCC(n2c(=O)[nH]c3ccccc32)CC1 (centres undefined)	inactive: -3.28%
CCOC(=O)N1CCC(Nc2ccc(OC)cc2)CC1	inactive: 1.81%
Cc1cc(C)cc(N(C(=O)c2ccccc2)C2CCN(C(=O)OC(C)(C)C)CC2)c1	inactive: 5.32%
O=C(NCC1(N2CCCCC2)CCCCC1)c1ccc(Cl)nc1	inactive: -11.1%
O=c1[nH]c2ccccc2n1C1CCN(C(c2ccccc2OC(F)(F)F)c2nnnn2C2CCCCC2)CC1 (centres undefined)	inactive: 3.25%
O=C(NCC1(N2CCOCC2)CCCCC1)c1cc2ccccc2o1	inactive: -4.89%

SMILES	activity change, negative = inhibition
Cc1cccc(NC2(C#N)CCN(Cc3ccccc3)CC2)c1	inactive: -2.58%
CCOC(=O)N1CCC(=O)CC1	inactive: -2.01%
CSc1ccccc1C(=O)NCC1(N2CCCCC2)CCCCC1	inactive: 1.72%
COc1ccc(C(=O)NCC2(N3CCCCC3)CCCCC2)c(OC)c1OC	inactive: -6.45%
CC(C)(C)OC(=O)N1CCC(N(C(=O)c2ccccc2)c2ccc(F)cc2)CC1	inactive: 1.67%
CCC(c1nnnn1C1CCCC1)N1CCC(n2c(=O)[nH]c3ccccc32)CC1 (centres undefined)	inactive: 1.01%
COc1ccc(C(=O)NCC2(N3CCCCC3)CCCCC2)cc1	inactive: -6.03%
CCCCn1nnnc1C(CC)N1CCC(n2c(=O)[nH]c3ccccc32)CC1 (centres undefined)	inactive: 7.13%
O=C(NCC1(N2CCCCC2)CCCCC1)c1cccs1	inactive: -0.652%
CCCCn1nnnc1C(c1cccs1)N1CCC(n2c(=O)[nH]c3ccccc32)CC1 (centres undefined)	inactive: 1.59%
O=C(NCC1(N2CCCCC2)CCCCC1)c1ccc(=O)[nH]c1	inactive: -3.22%
CCOC(=O)N1CCC(Nc2cccc(C)c2)CC1	inactive: -1.34%
COc1cc(C(=O)NCC2(N(C)C)CCCCC2)ccc1OC(F)F	inactive: -3.23%
O=c1[nH]c2ccccc2n1C1CCN(C(c2cccc3ccccc23)c2nnnn2C2CCCC2)CC1 (centres undefined)	inactive: -1.37%
O=c1[nH]c2ccccc2n1C1CCN(C(c2ccccc2)c2nnnn2C2CCCCC2)CC1 (centres undefined)	inactive: 2.39%
COc1ccccc1C(=O)NCC1(N2CCOCC2)CCCCC1	inactive: 0.157%
CCOC(=O)N1CCC(Nc2ccc(F)cc2)CC1	inactive: 2.38%
COc1ccc(NC2CCN(CCc3ccccc3)CC2)c(OC)c1	inactive: -2.23%
CCCCOc1ccc(C(=O)NCC2(N3CCOCC3)CCCCC2)cc1	inactive: -0.726%
CCCCn1nnnc1C(c1cc2ccccc2o1)N1CCC(n2c(=O)[nH]c3ccccc32)CC1 (centres undefined)	inactive: -2.3%
O=P1(N(CCCl)CCCl)SCCCS1	inactive: 1.2%
O=C(NCC1(N2CCCCC2)CCCCC1)c1ccc(F)cc1	inactive: 0.831%
